These are literature values, as cited in patent US20220354833A1, “ALVELESTAT FOR USE IN THE TREATMENT OF GRAFT REJECTION, BRONCHIOLITIS OBLITERANS SYNDROME AND GRAFT VERSUS HOST DISEASE” (MEREO BIOPHARMA 4 LIMITED, priority 2019, published 2022).

By UniProt entry, the sequences of proteins in these tests, tags left out. Residues count along the entry.
UniProt P08311, 21-244 limits assumed: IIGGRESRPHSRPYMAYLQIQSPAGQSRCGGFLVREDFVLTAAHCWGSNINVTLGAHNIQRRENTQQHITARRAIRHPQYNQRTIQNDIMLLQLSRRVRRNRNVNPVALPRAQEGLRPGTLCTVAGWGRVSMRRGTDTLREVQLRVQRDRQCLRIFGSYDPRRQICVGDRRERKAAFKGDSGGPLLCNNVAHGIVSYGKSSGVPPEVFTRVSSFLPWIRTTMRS
UniProt P08246, 30-267 limits assumed: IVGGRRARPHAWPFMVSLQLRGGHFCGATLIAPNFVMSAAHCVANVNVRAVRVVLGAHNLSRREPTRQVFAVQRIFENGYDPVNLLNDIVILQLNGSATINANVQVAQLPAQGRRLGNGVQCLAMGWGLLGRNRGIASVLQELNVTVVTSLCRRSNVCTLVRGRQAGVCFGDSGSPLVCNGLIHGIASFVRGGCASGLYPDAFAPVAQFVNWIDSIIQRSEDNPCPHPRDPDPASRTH
UniProt P24158, 28-248 limits assumed: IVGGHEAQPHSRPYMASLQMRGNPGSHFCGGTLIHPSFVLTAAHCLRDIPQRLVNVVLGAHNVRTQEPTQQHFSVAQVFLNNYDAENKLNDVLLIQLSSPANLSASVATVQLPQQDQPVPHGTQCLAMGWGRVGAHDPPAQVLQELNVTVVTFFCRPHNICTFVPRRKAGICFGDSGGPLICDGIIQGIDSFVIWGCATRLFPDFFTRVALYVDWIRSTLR

As usually defined, the IC50 is the concentration needed to halve the response being measured. A word on the pIC50: it is the negative decadic logarithm of the IC50, by convention in mol/L.

In one data set the target is cathepsin G (Homo sapiens, UniProt P08311). The settings on record: human NE vs cathepsin G; cited from earlier work.
The subject of another data set is trypsin. The settings on record: human NE vs trypsin; cited from earlier work.
A further data set concerns the target NE (Homo sapiens, UniProt P08246). The settings on record: explosive-release assay; cited from earlier work.
For a further data set, the system named is pancreatic elastase. The settings on record: human NE vs pancreatic elastase; cited from earlier work.
A further data set relates to chymotrypsin. The settings on record: human NE vs chymotrypsin; cited from earlier work.
In the next data set the target is proteinase-3 (Homo sapiens, UniProt P24158). The settings on record: human NE vs proteinase-3; cited from earlier work.

With `Cc1c(-c2ccnn2C)cc(C(=O)NCc2ccc(S(C)(=O)=O)cn2)c(=O)n1-c1cccc(C(F)(F)F)c1` [alvelestat, N-{[5-(methanesulfonyl)pyridin-2-yl]methyl}-6-methyl-5-(1-methyl-1H-pyrazol-5-yl)-2-oxo-1-[3-(trifluoromethyl)phenyl]-1,2-dihydropyridine-3-carboxamide], the “selectivity for human NE compared with cathepsin G” value on cathepsin G is recorded as “at least 600 fold”. Besides, in the data set on trypsin, the “selectivity for human NE compared with trypsin” value is reported as “at least 1900 fold”. Besides, at NE, the IC50 is 50 nM and the pIC50 is 7.30. Also, the “selectivity for human NE compared with pancreatic elastase” value in the data set with pancreatic elastase is “at least 1900 fold”. Besides, the “selectivity for human NE compared with chymotrypsin” value in the data set on chymotrypsin is “at least 1900 fold”. In addition, the “selectivity for human NE compared with proteinase-3” value on proteinase-3 is listed as “at least 1900 fold”.
